# In article PMC7723054:
# This is one part of the list.
# T1: LIN28A (human?, UniProt Q9H9Z2 1-209)
# T1 sequence: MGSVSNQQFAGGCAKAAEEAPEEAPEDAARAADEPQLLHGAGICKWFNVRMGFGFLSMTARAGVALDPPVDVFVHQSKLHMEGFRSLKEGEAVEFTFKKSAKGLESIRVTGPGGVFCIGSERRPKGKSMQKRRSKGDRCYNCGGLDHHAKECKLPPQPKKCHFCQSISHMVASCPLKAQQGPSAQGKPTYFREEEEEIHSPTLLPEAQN
# T2: CIRBP (Homo sapiens, UniProt Q14011 1-172)
# T2 sequence: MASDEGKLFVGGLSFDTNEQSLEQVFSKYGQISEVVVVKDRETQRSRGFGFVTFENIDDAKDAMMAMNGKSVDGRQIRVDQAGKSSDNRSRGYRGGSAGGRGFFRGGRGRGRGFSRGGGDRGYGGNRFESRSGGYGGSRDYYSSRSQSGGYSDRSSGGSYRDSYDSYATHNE
# T3: DHX36 (Homo sapiens, UniProt Q9H2U1 1-1008)
# T3 sequence: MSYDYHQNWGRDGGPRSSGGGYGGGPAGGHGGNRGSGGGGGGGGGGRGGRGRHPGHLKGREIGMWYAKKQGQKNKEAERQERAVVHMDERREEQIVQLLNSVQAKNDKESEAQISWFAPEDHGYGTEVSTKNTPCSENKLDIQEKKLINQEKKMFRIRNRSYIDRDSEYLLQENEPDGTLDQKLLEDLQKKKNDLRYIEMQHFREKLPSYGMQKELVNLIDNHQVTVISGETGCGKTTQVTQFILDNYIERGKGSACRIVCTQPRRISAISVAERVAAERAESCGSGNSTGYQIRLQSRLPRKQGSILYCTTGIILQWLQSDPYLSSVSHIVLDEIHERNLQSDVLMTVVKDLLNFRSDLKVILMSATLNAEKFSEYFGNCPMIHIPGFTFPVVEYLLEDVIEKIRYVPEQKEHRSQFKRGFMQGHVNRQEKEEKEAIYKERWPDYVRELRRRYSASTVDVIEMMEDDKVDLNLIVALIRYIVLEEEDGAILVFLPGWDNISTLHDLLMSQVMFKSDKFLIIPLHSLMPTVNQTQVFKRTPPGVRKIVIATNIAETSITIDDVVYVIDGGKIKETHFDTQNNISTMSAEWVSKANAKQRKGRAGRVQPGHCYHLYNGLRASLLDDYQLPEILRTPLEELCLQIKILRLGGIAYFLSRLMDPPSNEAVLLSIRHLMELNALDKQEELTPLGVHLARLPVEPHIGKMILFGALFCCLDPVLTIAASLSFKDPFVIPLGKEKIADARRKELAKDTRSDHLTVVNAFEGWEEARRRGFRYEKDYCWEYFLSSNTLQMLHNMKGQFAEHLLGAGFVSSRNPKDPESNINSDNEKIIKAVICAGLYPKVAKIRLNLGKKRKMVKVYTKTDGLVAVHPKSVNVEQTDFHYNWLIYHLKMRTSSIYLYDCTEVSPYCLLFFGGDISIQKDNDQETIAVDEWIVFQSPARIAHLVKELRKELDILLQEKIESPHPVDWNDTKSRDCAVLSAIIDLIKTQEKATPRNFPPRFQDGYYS
# B1: hsa-mir-4782 (structured_RNA)
# RNA: GGGAAUGUAUUCUCGCGCGCUUAGGGCCGGUGUACGAAGUUUCAGCAUCAAGAAAAGAUUUGGUGUUCUUGAUGCUGAAGCUUCGUGCAC
# B2: PARIS_ID31 (structured_RNA)
# RNA: GGGAAAUAUUUAUCAGGAGUGAGGCGCAGGUGUACGAAGUUUCAGCUGCUCUGGCUCUUGGCAGCUGAAGCUUCGUGCAC
# B3: hsa-mir-548z (structured_RNA)
# RNA: GGGACAUCAAUAACGGAGGAACACCAAGGGUGUACGAAGUUUCAGCUUUGCUACUGAAAGUAAUGGCAAAGCUGAAGCUUCGUGCAC
# B4: hsa-mir-4768 (structured_RNA)
# RNA: GGGAAGCGUGGCGCGCUACUACACUAAUGGUGUACGAAGUUUCAGCAUGGAUAUGGGAACUGUGAUGUCCAGCUGAAGCUUCGUGCAC
# B5: hsa-mir-1273f (structured_RNA)
# RNA: GGGACUAAGACCAUACUAUUGCGUUCGCGGUGUACGAAGUUUCAGCAGUGAGCUGAGAUCACGCAACUGCUGAAGCUUCGUGCAC
# B6: hsa-mir-4453 (structured_RNA)
# RNA: GGGAACCGGCUGUAUCUGUGAUACCCGCGGUGUACGAAGUUUCAGCGGUUUCCUUCGGGGCAGGUGGGGACUGCUCCUUUGGGAGGAAGGAGGAGGCCGCUGAAGCUUCGUGCAC
# B7: hsa-mir-4433b (structured_RNA)
# RNA: GGGAAUUUAAACCGGGCGAGAAUCUUAGGGUGUACGAAGUUUCAGCCCUGUUUGAAUAUUUCACCAGAAACAGGGCUGAAGCUUCGUGCAC
# B8: hsa-mir-7977 (structured_RNA)
# RNA: GGGAACCCGAUCGACAGAAGCGUUACAUGGUGUACGAAGUUUCAGCACCAAAAAUGAUAUGGGUGCUGAAGCUUCGUGCAC
# B9: hsa-mir-3689e (structured_RNA)
# RNA: GGGACAGGUAUACUGGAUCAAGUCACGCGGUGUACGAAGUUUCAGCGGGAGGUAUGAUAUCGUGGUUCCUGCUGAAGCUUCGUGCAC
# B10: hsa-mir-4636 (structured_RNA)
# RNA: GGGAAAGAGCCAAAGGAUCACAAGGUUUGGUGUACGAAGUUUCAGCUUAGCCCAGCAAUGGGAGAGUGCUAAGCUGAAGCUUCGUGCAC
# B11: hsa-mir-4433a (structured_RNA)
# RNA: GGGAAUGAGGAGAUUGGCCGGCAGGAAGGGUGUACGAAGUUUCAGCCUGUUUCUGGUGAAAUAUUCAAACAGGCUGAAGCUUCGUGCAC
# B12: hsa-mir-101-2 (structured_RNA)
# RNA: GGGAUAUCCGAGCGUGAUGGAAAUCUCUGGUGUACGAAGUUUCAGCGAUGCUGUAUAUCUGAAAGGUACGCUGAAGCUUCGUGCAC
# B13: hsa-mir-4699 (structured_RNA)
# RNA: GGGACAAGACGCAGAGUAUUGUAAGAUUGGUGUACGAAGUUUCAGCAGUUCCUGAUUAAGAAAUGGAAUUGCUGAAGCUUCGUGCAC
# Biological target: T1, LIN28A
# Experiment: FOREST: bead pull-down of RNA structure library v1, barcode microarray; U1A/LIN28A: 20 mM HEPES pH 7.5, 80 mM KCl, 20 mM NaCl, 10% glycerol, 2 mM DTT, 0.1 ug/uL BSA, 4 C; BG4/CIRBP/DHX36: 10 mM Tris-HCl pH 7.5, 100 mM KCl (or LiCl),; high values mean tight binding
row,Binder,binding signal
1,B1,1.86 z-score
2,B2,2.1 z-score
3,B3,1.85 z-score
4,B4,1.78 z-score
5,B5,1.65 z-score
6,B6,1.76 z-score
7,B7,1.69 z-score
8,B8,1.96 z-score
9,B9,1.81 z-score
10,B10,1.82 z-score
11,B11,2.18 z-score
12,B12,1.62 z-score
13,B13,2.04 z-score

# Biological target: T2, CIRBP
# Experiment: as above
row,Binder,binding signal
1,B1,-0.085 z-score
2,B2,2.32 z-score
3,B3,1.56 z-score
4,B4,0.23 z-score
5,B5,0.686 z-score
6,B6,-1.02 z-score
7,B7,-0.173 z-score
8,B8,0.469 z-score
9,B9,-1.33 z-score
10,B10,1.19 z-score
11,B11,1.37 z-score
12,B12,-0.384 z-score
13,B13,1.31 z-score

# Biological target: T3, DHX36
# Experiment: as above
row,Binder,binding signal
1,B1,-0.578 z-score
2,B2,0.916 z-score
3,B3,-0.0642 z-score
4,B4,-0.0408 z-score
5,B5,-0.425 z-score
6,B6,2.45 z-score
7,B7,0.836 z-score
8,B8,-0.225 z-score
9,B9,-0.0835 z-score
10,B10,-0.0671 z-score
11,B11,0.327 z-score
12,B12,2.07 z-score
13,B13,-0.00178 z-score
